This passage reports outcome results from PubChem BioAssay AID2283688 (EPA ToxCast).

Read-out in this assay: xenobiotic metabolism (CYP2C9), CYP2C9 (gene 1559)
Description: CLD_CYP2C9_24hr: CellzDirect (CLD) Gene Expression Assay for xenobiotic metabolism (CYP1A2) at 24 hours. The protocol:
CLD_24hr is a cell-based, multiplexed-readout assay that uses hepatocyte, a human liver primary cell, with measurements taken at 24 hours after chemical dosing in a 96-well plate.CLD_CYP2C9_24hr is one of 16 assay component(s) measured or calculated from the CLD_24hr assay. It is designed to make measurements of mRNA induction, a form of inducible reporter, as detected with chemiluminescence signals by Quantitative Nuclease Protection Assay (qNPA) technology.Data from the assay component CLD_CYP2C9_24hr was analyzed at the endpoint, CLD_CYP2C9_24hr, in the positive analysis fitting direction relative to DMSO as the negative control and baseline of activity. […] Furthermore, this assay endpoint can be referred to as a primary readout. […]
Human hepatocyte cultures were treated daily for two consecutive days with fresh dosing solutions containing appropriate concentrations of the 320 ToxCast chemicals (chemical identities were blinded to CellzDirect and other ToxCast collaborators), vehicle control (0.2% DMSO), and positive control inducers as summarized in Table 1. […] Cultures for each treatment group (i.e., media, vehicle [0.2% DMSO], positive control inducers [multiple concentrations], and the ToxCast chemicals [multiple concentrations]) were observed and cell morphology was assessed relative to vehicle control cultures at each harvest time point (0, 6, 24, or 48 h). […]

The entries are a selection whose mix differs from that of the whole data set. Inconclusive results are not listed. The source made the active and inactive calls. How the source made its calls: active means hit-call score of the fitted dose curve at least 0.9, where 1 is the maximum; inconclusive means response in the unintended direction; inactive means score below 0.9.

With `CC(C)OP(=S)(OC(C)C)SCCNS(=O)(=O)c1ccccc1`, the call was inactive.
